# Values quoted from earlier work as cited in article PMC7937321 (Genes and Environment, 2021).
# Tested on: rodent
# Details: chromosomal Aberration test, micronucleus test, transgenic rodent gene mutation assay; ref [48], [58]–[63]; cited from earlier work
compound,measurement,value
Nc1ccc([N+](=O)[O-])cc1N [4-Nitro-o-phenylenediamine],in vivo genotoxicity tests,negative
